Patent US20100160411A1, “BENZOXATHIINE AND BENZOXATHIOLE DERIVATIVES AND USES THEREOF” (Wyeth, priority 2006, published 2010)

The chains behind the UniProt entries cited, without tags or fusion partners. Residues count along the entry.
UniProt P28335, 33-458: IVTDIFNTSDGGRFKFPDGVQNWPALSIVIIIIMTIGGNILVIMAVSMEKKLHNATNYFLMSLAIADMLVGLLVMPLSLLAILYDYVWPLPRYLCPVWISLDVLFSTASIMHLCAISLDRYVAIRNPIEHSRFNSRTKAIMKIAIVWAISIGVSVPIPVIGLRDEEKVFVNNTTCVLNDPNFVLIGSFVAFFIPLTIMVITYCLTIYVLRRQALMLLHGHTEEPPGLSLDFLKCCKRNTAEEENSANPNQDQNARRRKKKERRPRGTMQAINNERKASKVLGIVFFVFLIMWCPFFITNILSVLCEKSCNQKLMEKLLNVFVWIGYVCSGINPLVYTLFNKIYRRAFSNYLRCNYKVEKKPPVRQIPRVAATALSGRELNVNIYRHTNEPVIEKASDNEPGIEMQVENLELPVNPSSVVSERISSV

Experiments:
human 5-HT2C receptor = human 5-HT2C receptor (Homo sapiens, UniProt P28335); assay: calcium mobilization (FLIPR) in CHO cells stably expressing the human 5-HT2C receptor; type: cell-based; settings: reference compounds, Fluo-3-AM
[1] = biological target: T1, human 5-hydroxytryptamine-2C (h5-HT2C) receptor (Homo sapiens, UniProt P28335); assay: [125I]DOI binding to membranes of CHO cells expressing the h5-HT2C receptor; settings: reference compounds; 95% confidence interval in parentheses; [125I]DOI radioligand, CHO cell membranes
T1 construct: expressed in transfected cells; host or cells: CHO (Chinese Hamster Ovary) cells; membrane preparation

## 1-(2,5-dimethoxy-4-iodophenyl)isopropylamine [DOI]
Human 5-HT2C receptor
  EC50: 0.5 nM
[1]
  Ki: 6.2 nM
